{"source": "paper PMC6581563", "about": "(Journal of medicinal chemistry, 2019)", "experiment": "Ex vivo whole body biodistribution in mice", "data": [{"smiles": "[11CH3]Oc1cc(C(=O)N2CC(N3CCN(C(=O)c4nccs4)CC3)C2)ccc1-c1ccc(Cl)c(C(F)(F)F)c1", "note": "[Compound 49, (4-(1-(4’-chloro-2-(methoxy-^11C)-3’-(trifluoromethyl)-[1,1’-biphenyl]-4-carbonyl)azetidin-3-yl)piperazin-1-yl)(thiazol-2-yl)methano-ne]", "values": [{"measurement": "Ratio of %ID/g 1 min/60 min in heart", "result": 3.49}, {"measurement": "Ratio of %ID/g 1 min/60 min in lungs", "result": 6.80}]}]}
